Literature values in paper PMC4932475, “Evaluation of P-Glycoprotein Inhibitory Potential Using a Rhodamine 123 Accumulation Assay” (Pharmaceutics, 2016).

Test system: P-gp
Conditions: ratio of highest versus lowest IC50 from five experimental measurements; ref Lee et al. [11]; cited from earlier work

For `COc1ccccc1OCCNCC(O)COc1cccc2[nH]c3ccccc3c12` (stereo not shown) [Carvedilol, carvedilol], the “IC50 Range for P-gp Inhibition (-fold)” value is listed as 168 -fold.
